Tests used:
[1] = system: CD34<+> hematopoietic cells; experiment: Ex vivo expansion culture of UCB CD133+/CD34+ cells, CD34+ cell growth by flow cytometry (cell density at day 7); format: cell-based, human
Method: (§1) The UCB of full-termed healthy newborns, included uneventful vaginal births or cesarean sections, was harvested with a standard 250-ml blood bag containing citrate-phosphate-dextrose-adenine anticoagulant (Terumo, Shibuya-ku, Tokyo, Japan).
Buffy coat cells were obtained from UCB samples by centrifugation (700×g for 20 min), and were diluted with an equal volume of wash buffer (Dulbecco's phosphate buffered saline (D-PBS, Sigma, St. Louis, Mo.) contain 2 mM EDTA (Sigma)). Then the Buffy coat cells were layered onto Ficoll-Paque (ρ=1.077 g/ml, Amersham Biosciences, Uppsala, Sweden) density gradients to deplete red blood cells (RBC) (700×g for 40 min). The mononuclear cell (MNC) interface was collected, diluted into four volumes of wash buffer, and centrifuged to pellet the cells (700×g for 10 min). The MNC pellet was washed twice and resuspended in MACS buffer (D-PBS contained 0.5% bovine serum albumin (BSA, Sigma) and 2 mM EDTA) for CD133<+> cell purification. CD133<+> cord blood cells were isolated using the Miltenyi VarioMACS device (Miltenyi Biotec, Bergisch Gladbach, Germany), according to the manufacturer's instruction. Briefly, UCB MNC were incubated for 30 min at 4° C. with human IgG to block the Fc receptors and mouse monoclonal antibody to human CD133 microbead (Miltenyi Biotec). Labeled cells were applied to magnetic column (LS column, Miltenyi Biotec). Then, unbound cells were washed out, and CD133<+> cells were eluted from the column with MACS buffer. To improve the purity of the CD133+ (or CD34<+>) cells, a secondary purification cycle was performed with the same way. Then the cells were sampled for CD34<+> analysis to determine yield, purity and viability and assayed for colony-forming cells (CFC) as day 0 for control. To expand cells, CD133<+> cells were seeded at a concentration of 5×10^4 cells/ml in 24-well plate (1 ml per well, Falcon, N.J.) with variable serum substitutes, cytokines and medium according to experiment design. After 7 days, the cells were analyzed to compare with the day 0 control (all experiments were repeated at least four times).
Cells before and after expanding culture were analyzed by two-color flow cytometry on a FACSCaliber analyzer (Becton-Dickinson, NJ, USA). About 1×10^6 cells were stained with FITC-conjugated anti-human CD45 and Peconjugated anti-human CD34, and gated for CD45<+>CD34<+> cells with low side scatter, according to the CD34 enumeration protocols developed by the International Society of Hematotherapy and Graft Engineering (ISHAGE) (Sutherland Dr, et al, J Hematother 1996; 5:231-8). A replicate sample was stained with FITC-antiCD45 and PE-mouse IgG1 as an isotype control to ensure specificity.
Two-level factorial design followed the method of steepest ascent was carried out to find the optimal concentration of serum substitutes and cytokines for CD34<+> cells expansion. Fractional and full factorial design data were regressed by SPSS software (SPSS Inc. In: SPSS for Windows, base system user's guide. Release 6.0. Chicago, Ill.: SPSS Inc.; 1993. p. 235-47) to obtain the first order polynomial. Its statistical significance was determined by an F-test and the significance of the regression coefficients was analyzed by a t-test. The polynomial takes the form of White blood cell or CD34<+> cell (cells/ml)=β0+βiXi (1) where β's are the regression constants and X's are coded variables for the tested additives.

WBC = experiment: Ex vivo expansion culture of UCB CD133+/CD34+ cells, WBC growth (cell density at day 7); format: cell-based, human
Method: as §1
Buffy coat cells were obtained from UCB samples by centrifugation (700×g for 20 min), and were diluted with an equal volume of wash buffer (Dulbecco's phosphate buffered saline (D-PBS, Sigma, St. Louis, Mo.) contain 2 mM EDTA (Sigma)). Then the Buffy coat cells were layered onto Ficoll-Paque (ρ=1.077 g/ml, Amersham Biosciences, Uppsala, Sweden) density gradients to deplete red blood cells (RBC) (700×g for 40 min). The mononuclear cell (MNC) interface was collected, diluted into four volumes of wash buffer, and centrifuged to pellet the cells (700×g for 10 min). […] After 7 days, the cells were analyzed to compare with the day 0 control (all experiments were repeated at least four times).
Two-level factorial design followed the method of steepest ascent was carried out to find the optimal concentration of serum substitutes and cytokines for CD34<+> cells expansion. […] Its statistical significance was determined by an F-test and the significance of the regression coefficients was analyzed by a t-test. […]

[2] = from Table 5, serum-containing medium, +1 = 10 ng/ml

B1: interleukin (IL)-3 (protein, UniProt P08700 20-152, looked up)
Interleukin-3: APMTQTTPLKTSWVNCSNMIDEIITHLKQPPLPLLDFNNLNGEDQDILMENNLRRPNLEAFNRAVKSLQNASAIESILKNLLPCLPLATAAPTRHPIHIKDGDWNEFRRKLTFYLKTLENAQAQQTTLSLAIF
notes: recombinant human growth factor
For B1, the “effect on WBC and CD34<+> cell growth” value ([1]; 2^9−5 fractional factorial design in IMDM containing BIT2 (data not shown)) was “could facilitate WBC and CD34<+> cell growth”, the “regression coefficient of first-order model, Eq. (5)” value [1, 2] was 0.100 10^6 CD34<+> cells/ml and the “effect on CD34<+> cell growth/expansion” value ([1]; per Eq. (3), serum-containing IMDM) was “can stimulate CD34<+> cell expansion”. The “effect on WBC and CD34<+> cell growth” value ([1]; per Eqs. (4) and (5), serum-containing medium) was “facilitated WBC and CD34<+> cell growth”, the “effect on WBC and CD34<+> cell growth” value ([1]; per Eqs. (10) and (11), serum-free IMDM + BIT2) was “positively affected WBC and CD34<+> cell growth” and the “regression coefficient of first-order model, Eq. (4)” value (WBC; [2]) was 0.313 10^6 WBC cells/ml. For the same molecule, the “effect on WBC growth” value (WBC; per Eq. (2), serum-containing IMDM) was “stronger effects than the other cytokines”.
